Earlier results as cited in publication PMC3082517, “Neurosteroid Dehydroepiandrosterone Interacts with Nerve Growth Factor (NGF) Receptors, Preventing Neuronal Apoptosis” (PLoS Biology, 2011).

Sequences of proteins named here, by UniProt entry; tags and fusion partners are left off. Residues count along the entry.
UniProt P04629, 33-423: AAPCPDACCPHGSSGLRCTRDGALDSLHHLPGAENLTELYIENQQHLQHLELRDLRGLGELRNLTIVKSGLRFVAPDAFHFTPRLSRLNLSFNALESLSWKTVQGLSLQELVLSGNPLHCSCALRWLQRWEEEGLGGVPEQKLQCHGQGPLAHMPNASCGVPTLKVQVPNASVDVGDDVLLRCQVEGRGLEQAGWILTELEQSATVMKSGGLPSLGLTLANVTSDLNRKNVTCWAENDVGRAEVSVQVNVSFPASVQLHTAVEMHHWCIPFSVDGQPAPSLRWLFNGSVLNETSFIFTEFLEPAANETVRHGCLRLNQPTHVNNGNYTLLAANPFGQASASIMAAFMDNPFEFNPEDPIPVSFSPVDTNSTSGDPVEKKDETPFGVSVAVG
UniProt P01138, 122-241: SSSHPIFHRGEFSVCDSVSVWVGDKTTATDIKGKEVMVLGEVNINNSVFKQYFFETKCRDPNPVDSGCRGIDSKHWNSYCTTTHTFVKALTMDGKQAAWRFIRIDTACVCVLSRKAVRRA

Columns and labels:
[1] = biological target: androgen receptors (AR); parameters: method as in PMID 14556282; settings: read-out: KD of binding to androgen receptors; cited from earlier work
[2] = biological target: TrkA (Homo sapiens) (UniProt P04629); settings: cited from earlier work

| Compound | Kd [1] [nM] | Kd [2] [nM] |
| --- | --- | --- |
| C[C@]12CC[C@H](O)CC1=CC[C@@H]1[C@@H]2CC[C@]2(C)C(=O)CC[C@@H]12 [DHEA, dehydroepiandrosterone] | 2000 |  |
| NGF (from UniProt P01138) |  | 0.01 |
